Target: Collagenase 3 (Homo sapiens, UniProt P45452)
Assay: In vitro inhibition of human matrix metalloprotease-13

COc1ccc(S(=O)(=O)N(CC(C)C)C(CCSCc2ccc(OCc3ccccc3)cc2)C(=O)NO)cc1 (stereo unspecified)
IC50: 20 nM

Reference: ChEMBL document CHEMBL1134591, “N-Aryl sulfonyl homocysteine hydroxamate inhibitors of matrix metalloproteinases: further probing of the S(1), S(1)', and S(2)' pockets” (J Med Chem, 2001)
